According to patent EP1023075B1, “LIQUID PRESENTATIONS OF OXAZAPHOSPHORINE-CONTAINING PHARMACEUTICAL PRODUCTS” (STADA ARZNEIMITTEL AG, priority 1997, dated 1999):

Test: Solubility trials: saturation concentration of the oxazaphosphorine in water / aqueous urea solution
Settings: saturated Cyclophosphamid solution

Structure (SMILES): O=P1(N(CCCl)CCCl)NCCCO1 (stereo not shown) [Cyclophosphamid]
- pH-Wert (Harnstoff-Startkonzentration 0 % (G/V)): 3,2
- pH-Wert (Harnstoff-Startkonzentration 10 % (G/V)): 3,5
- pH-Wert (Harnstoff-Startkonzentration 20 % (G/V)): 3,9
- pH-Wert (Harnstoff-Startkonzentration 30 % (G/V)): 4,2
- pH-Wert (Harnstoff-Startkonzentration 40 % (G/V)): 4,3
- pH-Wert (Harnstoff-Startkonzentration 45 % (G/V)): 4,7
- pH-Wert (Harnstoff-Startkonzentration 50 % (G/V)): 4,8
